pIC50: −log10 of the molar value. Where two headings read alike, the source gives them in different places.
Target: KRAS^G12D (Homo sapiens (Human), UniProt P01116, G12D)
Experiment: Assay of activity of inhibiting KRAS^G12D (TR-FRET, SOS/GTP nucleotide exchange)
Description: 20 mL of 1000 mM HEPES, 20 mL of 500 mM EDTA, 10 mL of 5 M sodium chloride, 0.1 mL of 100% Tween 20, and 949.9 mL of water were weighed and formulated to 1 L of solution. The solution was sterilized by filtration and stored at 4° C.
20 mL of 1000 mM HEPES, 10 mL of 1000 mM magnesium chloride, 30 mL of 5 M sodium chloride, 0.05 mL of 100% Tween 20, and 939.95 mL of water were weighed and formulated to 1 L of solution. The solution was sterilized by filtration and stored at 4° C.
9.5 μL of 95 μM KRAS^G12D protein and 440.5 μL of KRAS nucleotide exchange buffer were weighed and mixed. The mixture was incubated at room temperature for 1 hour, and then formulated to […] of solution together with 8.4 μL of 17.9 μM Tb-SA, 1.8 μL of 5 mM Bodipy GDP and 9539.8 μL of KRAS assay buffer. After mixing, the solution was left to stand at room temperature for 6 hours, and stored at −80° C. • b. Assay reagents:
73.3 μL of KRAS/Bodipy GDP/Tb-SA mixture and 2126.7 μL of KRAS assay buffer were weighed and formulated to 2200 μL of solution.
1.59 μL of 166 μM SOS protein, 198 μL of 100 mM GTP and 2000.41 μL of KRAS assay buffer were weighed and formulated to 2200 μL of solution.
• 1) The concentration of a stock solution of the control compound was 1 mM, and the concentration of a stock solution of compounds to be assayed was 10 mM. […]

The chains behind the UniProt entries cited, without tags or fusion partners. Residues count along the entry.
UniProt P01116, 1-188 isoform 2 G12D limits assumed: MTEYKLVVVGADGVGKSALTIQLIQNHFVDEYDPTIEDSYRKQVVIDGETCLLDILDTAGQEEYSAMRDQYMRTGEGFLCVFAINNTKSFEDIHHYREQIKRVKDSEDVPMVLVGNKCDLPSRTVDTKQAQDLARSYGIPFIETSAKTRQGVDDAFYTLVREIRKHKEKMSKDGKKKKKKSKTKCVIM

## Cc1cc(N)c(F)c(C2OCc3c(nc(OC[C@@]45CCCN4C[C@H](F)C5)nc3N3CC4CCC(C3)N4)C2C)c1C(F)(F)F (some centres unmarked)
read-out: KRAS^G12D IC50
  pIC50: 8.96

## Cc1cc(N)c(F)c(C2Cc3nc(OC[C@@]45CCCN4C[C@H](F)C5)nc(N4CC5CCC(C4)N5)c3C(C)O2)c1C(F)(F)F (some centres unmarked)
read-out: KRAS^G12D IC50, tested form: formate
  pIC50: 8.48

— patent US20240327433A1, “PYRIMIDOPYRAN COMPOUND” (Medshine Discovery Inc., priority 2021, published 2024)
